From EP1903056A2, “HLA-A1, -A2 -A3, -A24, -B7, and -B44 tumor associated antigen peptides and compositions” (priority 2002, dated 2004) come the findings set out here.

In one assay the target is HLA-A*2402 (Homo sapiens, UniProt P04439, D101N/D140Y/D185E/E176V/E190D/F33S/G103R/G107R/I119L/I121M/I306V/K335N/L105A/L180Q/L300P/N151K/N90K/Q86E/Q94H/R106L/R138H/R89G/T104I/T345S/V100E/W191G/Y123F). Kind of assay: Class I peptide-binding assay, A*2402.
Conditions: not given
`CC[C@H](C)[C@H](NC(=O)[C@H](Cc1ccc(O)cc1)NC(=O)[C@@H](N)CC(C)C)C(=O)N[C@@H](Cc1ccccc1)C(=O)N[C@@H](C)C(=O)N[C@H](C(=O)N[C@@H](CS)C(=O)N[C@@H](CC(C)C)C(=O)NCC(=O)N[C@@H](Cc1ccccc1)C(=O)O)[C@@H](C)O`: the “increase in HLA-A*2402 binding affinity of analog over wildtype” value is > 15 fold. Same read-out and setting: for `CC(C)C[C@H](NC(=O)[C@H](CCC(=O)O)NC(=O)[C@H](CCCNC(=N)N)NC(=O)[C@H](Cc1ccc(O)cc1)NC(=O)[C@@H](N)CCCNC(=N)N)C(=O)N[C@H](C(=O)N[C@@H](CO)C(=O)N[C@@H](CCC(=O)O)C(=O)N[C@@H](Cc1ccccc1)C(=O)O)C(C)C` [HER2/neu.968Y2] the value was > 18 fold.

Staying with this assay, now noted: A*2401, Table 19b, Her2/neu-derived A24 binders.
Regarding `CC(C)[C@H](NC(=O)[C@H](CC(=O)O)NC(=O)[C@H](CO)NC(=O)[C@H](CCC(N)=O)NC(=O)[C@H](Cc1c[nH]cn1)NC(=O)[C@@H](NC(=O)[C@H](Cc1ccccc1)NC(=O)[C@@H](N)CCCNC(=N)N)[C@@H](C)O)C(=O)N[C@@H](Cc1c[nH]c2ccccc12)C(=O)O` [compound 299], the IC50 (commonly the midpoint of a concentration-inhibition curve) was found to be 1090 nM.

`CSCC[C@H](NC(=O)[C@@H](N)CCCNC(=N)N)C(=O)N[C@@H](C)C(=O)N[C@@H](CCCNC(=N)N)C(=O)N[C@@H](CC(=O)O)C(=O)N1CCC[C@H]1C(=O)N[C@@H](CCC(N)=O)C(=O)N[C@@H](CCCNC(=N)N)C(=O)N[C@@H](Cc1ccccc1)C(=O)O` [compound 311] returned an IC50 of 3750 nM.

The assay is the same for the next values; noted with them: A*[…], Table 19a, CEA-derived A24 binders.
`CC[C@H](C)[C@H](NC(=O)[C@H](CS)NC(=O)[C@H](Cc1ccc(O)cc1)NC(=O)[C@@H](N)CCCNC(=N)N)C(=O)N1CCC[C@H]1C(=O)N[C@@H](Cc1c[nH]c2ccccc12)C(=O)N[C@@H](CCC(N)=O)C(=O)N[C@@H](CCCNC(=N)N)C(=O)N[C@@H](Cc1ccccc1)C(=O)O` [compound 248]: the IC50 worked out at 191 nM.

The compound `CC[C@H](C)[C@H](N)C(=O)N[C@@H](Cc1ccc(O)cc1)C(=O)N1CCC[C@H]1C(=O)N[C@@H](CC(N)=O)C(=O)N[C@@H](C)C(=O)N[C@@H](CO)C(=O)N[C@@H](CC(C)C)C(=O)N[C@@H](CC(C)C)C(=O)N[C@@H](Cc1ccccc1)C(=O)O` [compound 257] showed an IC50 of 2.2 nM. On the same count and under the same terms, the value for `CC[C@H](C)[C@H](NC(=O)[C@H](CO)NC(=O)[C@@H]1CCCN1C(=O)[C@H](CCCCN)NC(=O)[C@@H]1CCCN1C(=O)[C@H](CC(C)C)NC(=O)[C@H](CCC(=O)O)NC(=O)[C@@H]1CCCN1C(=O)[C@H](Cc1ccc(O)cc1)NC(=O)[C@@H](N)C(C)C)C(=O)O` [compound 259] was 1520 nM; that for `CC(C)C[C@H](NC(=O)[C@H](CCC(=O)O)NC(=O)[C@@H]1CCCN1C(=O)[C@H](Cc1ccc(O)cc1)NC(=O)[C@@H](N)C(C)C)C(=O)N1CCC[C@H]1C(=O)N[C@@H](CCCCN)C(=O)N1CCC[C@H]1C(=O)N[C@@H](CO)C(=O)N[C@@H](Cc1ccccc1)C(=O)O` [compound 260] was 106 nM. With `CC(C)C[C@H](N)C(=O)N[C@@H](Cc1ccc(O)cc1)C(=O)N[C@@H](Cc1c[nH]c2ccccc12)C(=O)N[C@H](C(=O)N[C@@H](CC(N)=O)C(=O)N[C@@H](CC(N)=O)C(=O)N[C@@H](CCC(N)=O)C(=O)N[C@@H](CO)C(=O)N[C@@H](Cc1ccccc1)C(=O)O)C(C)C` [compound 262], the IC50 came out at 63 nM.

Regarding `CC(C)C[C@H](N)C(=O)N[C@@H](Cc1ccc(O)cc1)C(=O)NCC(=O)N1CCC[C@H]1C(=O)N[C@@H](CC(=O)O)C(=O)N[C@@H](C)C(=O)N1CCC[C@H]1C(=O)N[C@H](C(=O)N[C@@H](Cc1ccccc1)C(=O)O)[C@@H](C)O` [compound 264], the IC50 came to 63 nM. Same read-out and setting: for `CC(C)[C@H](N)C(=O)N[C@@H](Cc1ccc(O)cc1)C(=O)N[C@@H](C)C(=O)N[C@@H](CCC(=O)O)C(=O)N1CCC[C@H]1C(=O)N1CCC[C@H]1C(=O)N[C@@H](CCCCN)C(=O)N1CCC[C@H]1C(=O)N[C@@H](Cc1ccccc1)C(=O)N[C@@H](Cc1ccccc1)C(=O)O` [compound 271] the value was 27 nM; for `CC[C@H](C)[C@H](NC(=O)[C@H](CCCNC(=N)N)NC(=O)[C@H](Cc1c[nH]c2ccccc12)NC(=O)[C@H](CO)NC(=O)[C@H](Cc1ccc(O)cc1)NC(=O)[C@@H](N)CCC(N)=O)C(=O)N[C@@H](CC(N)=O)C(=O)NCC(=O)N[C@@H](Cc1ccccc1)C(=O)O` [compound 289], 109 nM. Regarding `CC(C)[C@H](NC(=O)[C@H](Cc1ccccc1)NC(=O)[C@H](CS)NC(=O)[C@H](C)NC(=O)[C@H](Cc1ccc(O)cc1)NC(=O)[C@@H](N)[C@@H](C)O)C(=O)N[C@@H](CO)C(=O)N[C@@H](CC(N)=O)C(=O)N[C@@H](Cc1ccccc1)C(=O)O` [compound 291], the IC50 worked out at 8.6 nM.

Still in this assay, the particulars now being: A*[…], Table 19c, Mage2/3-derived A24 binders.
`CC[C@H](C)[C@H](NC(=O)[C@@H](NC(=O)[C@@H](NC(=O)[C@H](CO)NC(=O)[C@H](Cc1ccc(O)cc1)NC(=O)[C@@H](N)CO)[C@@H](C)O)[C@@H](C)O)C(=O)N[C@@H](CC(N)=O)C(=O)N[C@@H](Cc1ccc(O)cc1)C(=O)N[C@H](C(=O)N[C@@H](Cc1ccccc1)C(=O)O)[C@@H](C)O` [compound 314]: the IC50 was determined as 15 nM. On the same count and under the same terms, the value for `CC[C@H](C)[C@H](N)C(=O)N[C@@H](Cc1ccc(O)cc1)C(=O)N[C@@H](CO)C(=O)N[C@@H](CCCCN)C(=O)N[C@@H](C)C(=O)N[C@@H](CO)C(=O)N[C@@H](CCC(=O)O)C(=O)N[C@@H](Cc1ccc(O)cc1)C(=O)N[C@@H](Cc1ccccc1)C(=O)O` [compound 320] was 15 nM; that for `CC[C@H](C)[C@H](NC(=O)[C@H](CC(C)C)NC(=O)[C@H](CC(C)C)NC(=O)CNC(=O)[C@@H](NC(=O)[C@H](CCCCN)NC(=O)[C@@H]1CCCN1C(=O)[C@H](Cc1ccc(O)cc1)NC(=O)[C@@H](N)C(C)C)[C@@H](C)O)C(=O)N[C@@H](Cc1ccccc1)C(=O)O` [compound 328] was 2.9 nM. Regarding `CC[C@H](C)[C@H](NC(=O)[C@H](CC(C)C)NC(=O)[C@H](C)NC(=O)[C@H](CCCNC(=N)N)NC(=O)[C@@H]1CCCN1C(=O)CNC(=O)[C@H](Cc1c[nH]c2ccccc12)NC(=O)[C@H](CC(C)C)NC(=O)[C@H](Cc1ccccc1)NC(=O)[C@@H](N)CCC(=O)O)C(=O)O` [compound 329], the IC50 is 1240 nM.

In turn, `CC(C)C[C@H](NC(=O)[C@H](C)NC(=O)[C@H](CCCNC(=N)N)NC(=O)[C@@H]1CCCN1C(=O)CNC(=O)[C@H](Cc1c[nH]c2ccccc12)NC(=O)[C@H](CC(C)C)NC(=O)[C@H](Cc1ccc(O)cc1)NC(=O)[C@@H](N)CCC(=O)O)C(=O)N[C@@H](Cc1ccccc1)C(=O)O` [compound 330] came in with an IC50 of 10 nM. On the same count and under the same terms, for `CC(C)C[C@H](NC(=O)[C@H](CC(=O)O)NC(=O)[C@@H]1CCCN1C(=O)[C@H](Cc1ccccc1)NC(=O)[C@@H](N)[C@@H](C)O)C(=O)N[C@@H](CCC(=O)O)C(=O)N[C@@H](CO)C(=O)N[C@@H](CCC(=O)O)C(=O)N[C@@H](Cc1ccccc1)C(=O)O` [compound 334] the value was 2450 nM; for `CC(C)[C@H](NC(=O)[C@@H]1CCCN1C(=O)[C@H](Cc1ccccc1)NC(=O)[C@H](Cc1ccccc1)NC(=O)[C@H](Cc1ccc(O)cc1)NC(=O)[C@H](CCC(N)=O)NC(=O)[C@H](Cc1ccc(O)cc1)NC(=O)[C@@H](N)CC(N)=O)C(=O)N[C@@H](Cc1ccccc1)C(=O)O` [compound 337], 3.4 nM. On the same count and under the same terms, the value for `CC[C@H](C)[C@H](N)C(=O)N[C@@H](Cc1ccc(O)cc1)C(=O)N[C@@H](CO)C(=O)N[C@@H](CCCCN)C(=O)N[C@@H](C)C(=O)N[C@@H](CO)C(=O)N[C@@H](CO)C(=O)N[C@@H](CO)C(=O)N[C@@H](Cc1ccccc1)C(=O)O` [compound 341] was 375 nM; that for `CC[C@H](C)[C@H](NC(=O)[C@H](Cc1ccc(O)cc1)NC(=O)[C@@H](N)CC(C)C)C(=O)N[C@@H](Cc1ccccc1)C(=O)N[C@@H](C)C(=O)N[C@H](C(=O)N[C@@H](CS)C(=O)N[C@@H](CC(C)C)C(=O)NCC(=O)N[C@@H](CC(C)C)C(=O)O)[C@@H](C)O` [compound 343] was 3430 nM.

Take `CC[C@H](C)[C@H](N)C(=O)N[C@@H](Cc1ccc(O)cc1)C(=O)N1CCC[C@H]1C(=O)N[C@@H](CCCCN)C(=O)N[C@@H](C)C(=O)NCC(=O)N[C@@H](CC(C)C)C(=O)N[C@@H](CC(C)C)C(=O)N[C@H](C(=O)N[C@@H](Cc1ccccc1)C(=O)O)[C@@H](C)CC` [compound 348]: the IC50 stood at 1.2 nM.

Still in this assay, the particulars now being: binding affinity (IC50) to HLA-A*2402, running text.
Regarding `CC(C)C[C@H](NC(=O)[C@H](CCC(=O)O)NC(=O)[C@H](Cc1c[nH]c2ccccc12)NC(=O)[C@@H](NC(=O)[C@@H](NC(=O)[C@@H](NC(=O)CNC(=O)[C@H](Cc1ccc(O)cc1)NC(=O)[C@@H](N)CO)C(C)C)[C@@H](C)O)C(C)C)C(=O)O`, the IC50 was ≤ 100 nM.

The assay is the same for the next values; noted with them: result in words.
`CC[C@H](C)[C@H](NC(=O)[C@H](Cc1ccc(O)cc1)NC(=O)[C@@H](N)CC(C)C)C(=O)N[C@@H](Cc1ccccc1)C(=O)N[C@@H](C)C(=O)N[C@H](C(=O)N[C@@H](CS)C(=O)N[C@@H](CC(C)C)C(=O)NCC(=O)N[C@@H](Cc1ccccc1)C(=O)O)[C@@H](C)O`: the “change of HLA-A*2402 binding affinity of analog” value is “significantly higher binding affinity”. Still for that read-out and setting: the value for `CC[C@H](C)[C@H](NC(=O)[C@H](CC(C)C)NC(=O)[C@H](Cc1c[nH]c2ccccc12)NC(=O)[C@H](CO)NC(=O)[C@H](Cc1ccc(O)cc1)NC(=O)[C@@H](N)CCC(N)=O)C(=O)N[C@@H](CC(=O)O)C(=O)NCC(=O)N[C@@H](CC(N)=O)C(=O)N[C@@H](Cc1ccccc1)C(=O)O` [CEA.446F10] was “significantly improved binding”; that for `CC(C)C[C@H](NC(=O)[C@H](CC(N)=O)NC(=O)[C@H](C)NC(=O)CNC(=O)[C@H](CO)NC(=O)[C@H](CC(C)C)NC(=O)[C@H](Cc1ccc(O)cc1)NC(=O)[C@@H](N)CO)C(=O)N[C@@H](CC(N)=O)C(=O)N[C@@H](Cc1ccccc1)C(=O)O` [CEA.604F10] was “significantly improved binding”; that for `CC(C)C[C@H](NC(=O)[C@H](CCC(=O)O)NC(=O)[C@H](CCCNC(=N)N)NC(=O)[C@H](Cc1ccc(O)cc1)NC(=O)[C@@H](N)CCCNC(=N)N)C(=O)N[C@H](C(=O)N[C@@H](CO)C(=O)N[C@@H](CCC(=O)O)C(=O)N[C@@H](Cc1ccccc1)C(=O)O)C(C)C` [HER2/neu.968Y2] was “significantly improved”.
